System: MKN-28 human gastric carcinoma
Settings: iv, 1 mg/kg, q4dx4
Experimental: Tumor fragments were inoculated on both flanks at day 0. Treatment started when tumors were just palpable. The molecule was given by oral route and intravenously according to the schedule q4d×4. During the treatment, animals were inspected every day for mortality. Physical appearance, behavior and general and local clinical signs of the mice will be observed daily. Any deviation from normality was recorded. All animals were weighed during the whole treatment period, in order to calculate the percent body weight loss due to the treatment.
Tumor volume inhibition % in treated over control tumors was evaluated 20 days after last treatment. To determine the antitumor activity of the drug, tumor diameters was measured biweekly with a Vernier caliper. The formula TV (mm^3)=[length (mm)×width (mm)^2]/2 was used, where the width and the length are the shortest and the longest diameters of each tumor, respectively.
When tumors reached a weight of about 2 g, the mice were sacrificed by cervical dislocation. LCK (log cell kill) as index of efficacy was calculated to evaluate the persistence of the effect of the molecule at the end of the treatment.

## 7-[(N′,N″,N′″-tert-butoxycarbonyl)-spermine-imino-methyl]-20S-camptothecin [ST2544]
  BWL % (body weight loss): 1%
